Like-named read-outs stand apart in the source and are kept apart here.
Tests used:
[1] = target: full-length RORγt in Jurkat cells (Homo sapiens (Human), UniProt P51449); assay: RORγt 5xRORE Assay in Jurkat Cells (Assay 2)
[2] = target: recombinant RORγ Ligand Binding Domain (LBD) protein (Homo sapiens (Human), UniProt P51449); assay: Radio-Ligand RORγ Binding Assay (Assay 1); conditions: read-out: RORγ Binding Ki Range*, competition with 25-hydroxy [26,27-3H]-cholesterol, SPA
[3] = read-out: RORγt5X IC50 Range*, Nanoluc luciferase reporter, 16-18 hrs, Table 8

Chains of the proteins cited; added tags and fusions are not shown. A line that says so, or that is headed by a name, gives the form on record, which may keep a tag or linker. Residues count along the entry.
UniProt P51449, 269-508 limits assumed: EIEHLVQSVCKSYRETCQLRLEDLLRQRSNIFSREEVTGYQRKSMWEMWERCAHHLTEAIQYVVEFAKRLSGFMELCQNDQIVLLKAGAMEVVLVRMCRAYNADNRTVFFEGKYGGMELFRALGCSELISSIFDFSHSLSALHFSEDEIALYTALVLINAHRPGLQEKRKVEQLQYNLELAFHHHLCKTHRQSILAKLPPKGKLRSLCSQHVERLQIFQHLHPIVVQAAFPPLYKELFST
UniProt P51449, 25-518 with tags or gaps limits assumed: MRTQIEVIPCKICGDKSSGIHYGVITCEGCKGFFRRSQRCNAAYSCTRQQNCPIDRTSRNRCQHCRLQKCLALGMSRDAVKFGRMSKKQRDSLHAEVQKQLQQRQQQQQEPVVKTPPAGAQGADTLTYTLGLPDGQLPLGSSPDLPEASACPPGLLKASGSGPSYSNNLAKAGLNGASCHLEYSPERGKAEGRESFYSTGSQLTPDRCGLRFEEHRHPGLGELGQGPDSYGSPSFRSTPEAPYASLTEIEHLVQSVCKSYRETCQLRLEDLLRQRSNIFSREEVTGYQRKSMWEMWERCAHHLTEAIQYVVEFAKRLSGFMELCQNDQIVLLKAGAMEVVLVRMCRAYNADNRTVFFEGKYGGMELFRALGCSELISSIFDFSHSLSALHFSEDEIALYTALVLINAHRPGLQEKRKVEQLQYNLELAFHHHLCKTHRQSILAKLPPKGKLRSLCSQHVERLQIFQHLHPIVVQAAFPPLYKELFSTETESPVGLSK

Q: With `CCS(=O)(=O)c1ccc(CC(=O)Nc2nc3c(s2)CN(Cc2ccc(OC(F)(F)F)cc2Cl)[C@H]3C(C)C)nc1` as the compound, how does the IC50 [1, 3] read?
A: < 0.1 µM

Q: And the Ki ([2]; Table 8)?
A: < 0.1 µM

Q: `CC(C)[C@H]1c2nc(NC(=O)CN3CCC(S(C)(=O)=O)CC3)sc2CN1Cc1ccc(Cl)cc1` was tested. Which Ki ([2]; Table 9) did it give?
A: 0.1 to 1 µM

Q: With `CCS(=O)(=O)c1ccc(CC(=O)Nc2nc3c(s2)CN(Cc2ccc(Cl)cc2)[C@H]3C(C)C)cc1` as the compound, how does the IC50 [1, 3] read?
A: < 0.1 µM

Q: For `C=C(C(=O)Nc1nc2c(s1)CN(Cc1ccc(OC(F)F)cc1)[C@H]2C(C)C)c1ccc(S(=O)(=O)CC)cc1`, which IC50 ([1]; read-out: RORγt5X IC50 Range*, Nanoluc luciferase reporter, 16-18 hrs, Table 9) is on record?
A: < 0.1 µM

Q: And the Ki ([2]; Table 9)?
A: < 0.1 µM

Q: Which results are given for `Cc1cc(CN2Cc3sc(NC(=O)Cc4ccc(S(C)(=O)=O)cc4)nc3[C@@H]2C(C)C)ncc1Cl`?
A: IC50 [1, 3]: < 0.1 µM; Ki ([2]; Table 8): < 0.1 µM

Q: Which IC50 [1, 3] does the source give for `CCS(=O)(=O)c1ccc(CC(=O)Nc2nc3c(s2)CN(Cc2ccc(C(F)(F)F)c(Cl)c2)[C@H]3C(C)C)nc1` here?
A: < 0.1 µM

Q: What about the Ki ([2]; Table 8) of the same compound?
A: < 0.1 µM
